Earlier results, collected in patent US20080051332A1, “METHOD OF MODULATING HEMATOPOIETIC STEM CELLS AND TREATING HEMATOLOGIC DISEASES USING INTRANASAL PARATHYROID HORMONE” (Nastech Pharmaceutical Company Inc., priority 2005, published 2008).

Settings: intraduodenally to rats with 1% (w/v) polycarbophil dispersion vs aqueous solution without polymer; cited from earlier work

In the case of “9-desglycinamide, 8-arginine vasopressin [DGAVP]”, the increase of bioavailability is given as 3-5 fold.
